The nature of this data set: Hair dye active solubility testing.

Molecules are shown by their SMILES.

Consider `Nc1ccc(N)cc1` [p-phenylene diamine], for which the Observation entry (Table 13, 1% active in ketal alcohol (1a)) is “orange/80 °C”; the Observation entry (Table 13, 5% active in ketal alcohol (1a)) is “Dark brown”; the Observation entry (Table 13, 10% active in ketal alcohol (1a)) was “Undissolved”; the Observation entry (Table 14, 5% active in EtLGK) was “Dark brown”; the Observation entry (Table 15, 1% active) is reported as “Precipitation”.

Source of the values: patent US9458414B2, “Cleaning, surfactant, and personal care compositions” (SEGETIS, INC., priority 2012, dated 2016).
